Results on one molecule are retold here after patent publication US12285524B2, “Sustained-release pharmaceutical compositions comprising an antipsychotic drug and uses thereof” (priority 2018, dated 2025).

Read-outs that look alike come from different tables or passages of the source.

For data set [1] the following is noted: oral administered; literature (Drug Deliv. 2015; 22(8):1059-1070); cited from earlier work.
The nature of another data set: in vivo. The following applies: female, Sprague-Dawley, rat, sc, 10 mg/kg. As for the experimental part:
The rats were housed in a holding room which operated on a 12-hr light/12-hr dark circadian cycle with free access to water and food.
Plasma samples were obtained by centrifugation, kept frozen at −80° C. and analyzed using a noncompartmental analysis model in PKSolver (Comput Methods Programs Biomed. 2010; 99(3):306-314).

Regarding `Cc1nc2n(c(=O)c1CCN1CCC(c3noc4cc(F)ccc34)CC1)CCCC2` [Risperidone, risperidone], the half-life – broadly, the time needed for the level to fall by half in the phase considered – in data set [1] was 5.9 h; in “in vivo”, 65.4 min.
